Reference: ChEMBL document CHEMBL1132952, “2D QSAR modeling and preliminary database searching for dopamine transporter inhibitors using genetic algorithm variable selection of Molconn Z descriptors” (J Med Chem, 2000)

Sequences of proteins named here, by UniProt entry; tags and fusion partners are left off.
UniProt P23977, whole entry: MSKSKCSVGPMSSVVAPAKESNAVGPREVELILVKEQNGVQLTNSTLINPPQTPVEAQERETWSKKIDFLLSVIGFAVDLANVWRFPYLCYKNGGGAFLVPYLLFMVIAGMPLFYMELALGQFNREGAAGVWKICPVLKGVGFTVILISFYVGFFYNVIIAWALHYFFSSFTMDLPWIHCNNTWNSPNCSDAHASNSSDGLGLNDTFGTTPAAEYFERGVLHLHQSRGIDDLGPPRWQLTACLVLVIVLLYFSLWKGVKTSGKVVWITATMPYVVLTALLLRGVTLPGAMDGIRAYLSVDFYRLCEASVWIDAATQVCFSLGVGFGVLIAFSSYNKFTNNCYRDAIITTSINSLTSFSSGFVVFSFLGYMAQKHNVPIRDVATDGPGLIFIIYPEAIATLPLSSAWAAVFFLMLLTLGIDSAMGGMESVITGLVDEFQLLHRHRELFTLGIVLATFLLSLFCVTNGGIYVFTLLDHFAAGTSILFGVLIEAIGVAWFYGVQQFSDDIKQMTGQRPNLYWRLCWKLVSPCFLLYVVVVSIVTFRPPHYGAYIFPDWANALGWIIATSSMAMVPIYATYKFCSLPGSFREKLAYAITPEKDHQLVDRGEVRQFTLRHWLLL

Molecular target: Sodium-dependent dopamine transporter (Rattus norvegicus, UniProt P23977)

SMILES	Ki
CCN(CC)CCOC(=O)C1(c2ccccc2)CCCC1	5250 nM
CNC1CC(c2ccc(Cl)c(Cl)c2)c2ccccc21 (configuration not stated) [INDATRALINE]	7.94 nM
